Assay results taken from PubChem BioAssay AID538 (PCMD, 2006).
The list shows a part of the results, in another mix than the full data. Some results for these compounds are left out of this collection, so the calls shown say nothing about other tests. Calls of active or inactive are those of the source.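 Rule for the calls: active = inhibition above 20% in each of the two 10-compound mixture wells holding the compound; inactive = the rest.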

Chains of the proteins cited; added tags and fusions are not shown. Residues count along the entry.
UniProt P09871, 16-437 limits assumed: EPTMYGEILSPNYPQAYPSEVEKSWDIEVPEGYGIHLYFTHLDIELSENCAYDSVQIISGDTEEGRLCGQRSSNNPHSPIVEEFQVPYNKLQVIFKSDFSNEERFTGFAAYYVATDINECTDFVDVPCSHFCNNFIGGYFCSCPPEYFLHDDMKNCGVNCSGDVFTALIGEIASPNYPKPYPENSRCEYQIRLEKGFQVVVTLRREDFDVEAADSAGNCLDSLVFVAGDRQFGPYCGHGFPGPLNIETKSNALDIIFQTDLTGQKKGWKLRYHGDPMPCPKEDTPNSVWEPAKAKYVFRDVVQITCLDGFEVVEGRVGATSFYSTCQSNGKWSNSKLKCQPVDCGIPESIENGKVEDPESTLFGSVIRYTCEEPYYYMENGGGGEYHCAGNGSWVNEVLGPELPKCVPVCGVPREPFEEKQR
UniProt P09871, 438-688 limits assumed: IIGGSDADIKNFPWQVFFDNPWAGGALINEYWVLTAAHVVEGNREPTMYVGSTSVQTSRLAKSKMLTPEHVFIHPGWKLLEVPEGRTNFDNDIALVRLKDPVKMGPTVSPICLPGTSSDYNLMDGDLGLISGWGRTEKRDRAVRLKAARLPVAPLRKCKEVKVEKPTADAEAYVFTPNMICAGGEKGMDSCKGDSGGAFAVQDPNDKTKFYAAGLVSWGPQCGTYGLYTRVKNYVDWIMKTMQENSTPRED

These molecules were tested against Complement C1s subcomponent (Homo sapiens) (UniProt P09871) (assay: human C1s inhibition by compound pools – biochemical, 10-compound mixtures, primary screen (AID 538;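 note: 0% = enzyme wells lacking compound mixture and 100% = no-enzyme blank wells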)). Details: purified C1s, fluorogenic AMC substrate, pooled mixtures; screened at 5 µM (by protocol).
For `CN(C)c1cccc(C(=O)NCC2(N(C)C)CCCCC2)c1`, the mean inhibition % of two 10-compound mixtures (stronger effect = higher value) was inactive: 12.4%. With `O=C(OC1CN2CCC1CC2)C(CO)(c1ccccc1)c1ccccc1` (configuration not stated) the mean inhibition % of two 10-compound mixtures (stronger effect = higher value) was inactive: -14.6%.
